System: Salmonella typhimurium (ATCC 14028)
Assay: Combination of NK-lysin peptide and human IL-2, micro-dilution growth inhibition
Type: cell-based
Conditions: over 24 hours; IL-2 2 ng/ml, peptide 1×MIC
Procedure: The standard micro-dilution technique was used to measure the least-inhibitory concentration of NK-lysin peptide and Human IL-2 individually. This method was also used to measure the least-inhibitory concentration of the NK-lysin peptide mixed with IL-2. The 1×MIC of NK-lysin peptide against each bacterial strain was mixed with IL-2 (2 ng/ml).

IL-2: recombinant human interleukin-2 from Sigma Aldrich
antibacterial activity: maintained over the 24 hours
